Values of other authors as cited in patent US5422118A, “Transdermal administration of amines with minimal irritation and high transdermal flux rate” (priority 1992, dated 1995).

Settings: human, in vivo; cited from earlier work

SMILES: CN(C)CC[C@@H](c1ccc(Br)cc1)c1ccccn1 [dexbrompheniramine]
- Clearance: 308 mL/min
